Earlier results as cited in paper PMC11329750 (Clinical and Translational Science, 2024).

Test system: pregnane X receptor (PXR)
Conditions: cited from earlier work

## CO[C@H]1/C=C/O[C@@]2(C)Oc3c(C)c(O)c4c(O)c(c(/C=N/N5CCN(C)CC5)c(O)c4c3C2=O)NC(=O)/C(C)=C\C=C\[C@H](C)[C@H](O)[C@@H](C)[C@@H](O)[C@@H](C)[C@H](OC(C)=O)[C@@H]1C [rifampin]
  binding to PXR weaker than hyperforin: more than 20 fold
